Experimental data: patent US8765153B2, “Levalbuterol salt” (Sunovion Pharmaceuticals Inc., priority 2002, dated 2014)

Assay: Solubility of crystals in HFA 134/Ethanol Blends

Solubility in HFA 134/Ethanol Blends (Actual Ethanol % 0.00, Day 2): 0.00 µg/g
Solubility in HFA 134/Ethanol Blends (Actual Ethanol % 0.00, Day 6-8): 0.02 µg/g
Solubility in HFA 134/Ethanol Blends (Actual Ethanol % 0.00, Day 57-65): 0.12 µg/g
Solubility in HFA 134/Ethanol Blends (Actual Ethanol % 2.01, Day 1): 0.07 µg/g
Solubility in HFA 134/Ethanol Blends (Actual Ethanol % 2.01, Day 2): 0.10 µg/g
Solubility in HFA 134/Ethanol Blends (Actual Ethanol % 2.01, Day 6-8): 0.44 µg/g
Solubility in HFA 134/Ethanol Blends (Actual Ethanol % 2.01, Day 57-65): 1.18 µg/g
Solubility in HFA 134/Ethanol Blends (Actual Ethanol % 5.28, Day 1): 0.69 µg/g
Solubility in HFA 134/Ethanol Blends (Actual Ethanol % 5.28, Day 2): 0.94 µg/g
Solubility in HFA 134/Ethanol Blends (Actual Ethanol % 5.28, Day 6-8): 1.81 µg/g
Solubility in HFA 134/Ethanol Blends (Actual Ethanol % 5.28, Day 57-65): 2.97 µg/g
Solubility in HFA 134/Ethanol Blends (Actual Ethanol % 9.80, Day 1): 1.65 µg/g
Solubility in HFA 134/Ethanol Blends (Actual Ethanol % 9.80, Day 2): 2.32 µg/g
Solubility in HFA 134/Ethanol Blends (Actual Ethanol % 9.80, Day 6-8): 5.30 µg/g
Solubility in HFA 134/Ethanol Blends (Actual Ethanol % 9.80, Day 57-65): 6.82 µg/g
solubility in ethanol compared with levalbuterol hydrochloride (HFA 134/ethanol blends): substantially lower solubility
Substance: levalbuterol L-tartrate
